Values quoted from earlier work in article PMC3476531, “Synergy of Peptide and Sugar in O-GlcNAcase Substrate Recognition” (Chemistry & Biology, 2012).

The chains behind the UniProt entries cited, without tags or fusion partners.
UniProt O60502, whole entry: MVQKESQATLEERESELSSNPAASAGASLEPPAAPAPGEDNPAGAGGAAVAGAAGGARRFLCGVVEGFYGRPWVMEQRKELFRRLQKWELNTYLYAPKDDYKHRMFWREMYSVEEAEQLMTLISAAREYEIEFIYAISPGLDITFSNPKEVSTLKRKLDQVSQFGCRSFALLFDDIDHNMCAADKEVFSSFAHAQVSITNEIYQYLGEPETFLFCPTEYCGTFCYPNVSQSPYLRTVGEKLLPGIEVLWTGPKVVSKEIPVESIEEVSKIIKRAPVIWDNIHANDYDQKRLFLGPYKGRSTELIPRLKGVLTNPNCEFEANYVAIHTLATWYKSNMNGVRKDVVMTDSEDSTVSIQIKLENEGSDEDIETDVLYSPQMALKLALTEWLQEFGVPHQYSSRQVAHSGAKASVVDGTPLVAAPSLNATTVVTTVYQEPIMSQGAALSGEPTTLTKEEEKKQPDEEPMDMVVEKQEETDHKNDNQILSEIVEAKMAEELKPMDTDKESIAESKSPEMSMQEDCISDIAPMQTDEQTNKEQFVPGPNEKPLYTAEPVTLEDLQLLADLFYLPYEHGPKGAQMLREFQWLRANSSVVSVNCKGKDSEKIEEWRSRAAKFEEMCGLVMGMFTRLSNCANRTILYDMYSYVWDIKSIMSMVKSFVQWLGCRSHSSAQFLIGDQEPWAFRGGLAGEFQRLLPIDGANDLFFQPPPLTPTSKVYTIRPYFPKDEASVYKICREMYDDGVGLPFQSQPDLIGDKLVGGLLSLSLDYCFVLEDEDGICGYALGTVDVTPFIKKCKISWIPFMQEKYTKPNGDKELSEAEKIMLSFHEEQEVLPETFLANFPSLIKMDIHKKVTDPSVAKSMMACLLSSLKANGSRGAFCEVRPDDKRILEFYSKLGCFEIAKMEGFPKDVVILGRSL

Molecular target: hOGA (Homo sapiens, UniProt O60502)
Details: read-out: Michaelis constant (KM) of glycopeptide substrate for hOGA; wild-type hOGA; substrate competition assay with 4MU-GlcNAc; value reproduced from earlier paper; ref Schimpl et al., 2010; cited from earlier work

CC(=O)N[C@H]1[C@H](OC[C@H](NC(=O)[C@H](Cc2c[nH]cn2)NC(=O)[C@H](C)NC(=O)[C@@H](NC(C)=O)C(C)C)C(=O)NCC(=O)N[C@@H](C)C(N)=O)O[C@H](CO)[C@@H](O)[C@@H]1O
Km: 1200 µM
